# Reference: PubChem BioAssay AID540277 (National Center for Advancing Translational Sciences (NCATS), 2011)
# Sequences of proteins named here, by UniProt entry; tags and fusion partners are left off.
# UniProt Q8NER1, whole entry: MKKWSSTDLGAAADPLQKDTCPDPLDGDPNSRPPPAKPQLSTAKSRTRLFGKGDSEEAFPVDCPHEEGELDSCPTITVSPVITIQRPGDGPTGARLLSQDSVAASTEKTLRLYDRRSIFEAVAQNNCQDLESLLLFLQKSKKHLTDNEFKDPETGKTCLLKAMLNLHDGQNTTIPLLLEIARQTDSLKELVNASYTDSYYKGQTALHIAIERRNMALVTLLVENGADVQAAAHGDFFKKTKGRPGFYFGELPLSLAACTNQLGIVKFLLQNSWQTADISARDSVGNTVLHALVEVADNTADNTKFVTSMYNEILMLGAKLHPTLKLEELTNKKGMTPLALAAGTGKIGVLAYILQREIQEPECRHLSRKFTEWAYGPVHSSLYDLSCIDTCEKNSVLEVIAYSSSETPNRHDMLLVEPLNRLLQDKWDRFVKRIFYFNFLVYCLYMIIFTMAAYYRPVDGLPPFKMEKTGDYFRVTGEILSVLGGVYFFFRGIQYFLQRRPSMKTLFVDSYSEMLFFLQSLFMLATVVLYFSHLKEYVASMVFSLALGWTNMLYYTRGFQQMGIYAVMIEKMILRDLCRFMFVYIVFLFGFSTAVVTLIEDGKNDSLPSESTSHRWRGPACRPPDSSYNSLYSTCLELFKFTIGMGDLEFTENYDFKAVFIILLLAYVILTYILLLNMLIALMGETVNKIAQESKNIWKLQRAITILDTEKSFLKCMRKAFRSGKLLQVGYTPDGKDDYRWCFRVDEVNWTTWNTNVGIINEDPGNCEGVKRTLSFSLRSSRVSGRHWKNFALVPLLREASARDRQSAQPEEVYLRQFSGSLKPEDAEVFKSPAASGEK
# Some of the results follow. Records with an inconclusive call do not appear. The source made the active and inactive calls. No stated cut-off is given here; in the data, active means potentiation above about 80%; inconclusive means between about 30% and that limit; inactive means weaker than that.
# Target: Transient receptor potential cation channel subfamily V member 1 (Homo sapiens) (UniProt Q8NER1)
# Experiment: HTS Assay for Compounds that Act as Potentiators of the Vanilloid Receptor 1; further: 0% is about no effect
# Conditions: TRPV1-expressing cells, Fluo-8 calcium influx, capsaicin EC20 potentiation; at 8.33 µM; stronger effect = higher value
# Text: The transient receptor potential ion channel, family V, number 1, (TRPV1) is one of the most important molecular transducers of painful stimuli and a potential target for analgesic drug development. Although recent clinical trials with orthosteric antagonists have not produced a successful drug because of a hyperthermia side effect and their tendency to block thermal noxious pain, this ion channel is undeniably well placed in the pain pathway, and the idea of blocking pain signals before they enter the CNS is an excellent concept and of proven efficacy when TRPV1 agonists are used. We propose a new approach involving allosteric modulation to impose an activity-dependent constraint within the context of inflammation and tissue damage that would alter the responsiveness of the channel in a way that an orthosteric vanilloid antagonist cannot achieve. We believe that the allosteric modulator approach has not been explored for this target. The main goal of this proposal is to identify additional, new, potent allosteric modulators of TRPV1 that can be used to investigate TRPV1 function. Our recent report provides evidence of proof of concept, but the compounds are just at the edge of utility in terms of potency. […] The question of whether they can be used as analgesic agents is complex, but if suitable compounds are identified then testing for analgesic properties will be conducted. NIH Chemical Genomics Center [NCGC] NIH Molecular Libraries Probe Centers Network [MLPCN] MLPCN Grant: MH089480-1A1 Assay Submitter (PI): Michael Iadarola, National Institute of Dental and Cranofacial Research
# Upon TRPV1 activation in TRPV1 cells, the channel opens and extracellular cations flow through the channel into the cytosol. A calcium binding dye (Fluo-8) becomes fluorescent when bound to calcium. This dye is pre-loaded into cells and is used as a marker for calcium influx. The amount of accumulated calcium is precisely quantified using the FDSS kinetic reader and the calcium dye. For the HTS assay, freshly prepared cells are plated at a density of 2000/well in 3 ul medium in 1536-well plates and cultured overnight at 35.5C. Cells will be loaded with 1 ul of the homogeneous calcium dye (ABD Bioquest) at room temperature for 40 to 90 minutes. Plates will be loaded into the FDSS kinetic reader and a 1 sec / cycle for 10 second baseline signal will be measured. Compound library will then be added with a pintool at 23 nl and measured kinetically for 3 minutes. This portion of the read is considered the agonist portion of the screen. Following the 3 minutes of incubation, an on board pipettor will deliver 1 ul of capsaicin for a final concentration equal to the EC20. Signal will be measured kinetically for an additional 2 minutes. This portion of the read is considered the allosteric enhancer portion of the screen. The FDSS reader has a standard filter set capable of measuring calcium bound Fluo-8 (ex=480 and em=520 nm).
row,Compound,potentiation
1,CCOP(C)(=S)SCC(=O)NC(C)(CC)C(=O)O (stereo not drawn),inactive: -13%
2,c1nnnn1CCn1cnnn1,inactive: -3.26%
3,CP(=O)(Nc1ccc(SC(F)(F)F)cc1)Oc1ccc(F)cc1 (stereo not drawn),inactive: -5.27%
4,CC(C)C(=O)NC(Sc1ccccc1)C(Cl)(Cl)Cl (stereo not drawn),inactive: 0.884%
5,O=P(Nc1nccs1)(c1ccccc1)c1ccccc1,inactive: -22.6%
6,Cc1ccccc1NP(C)(=O)Nc1ccccc1C,inactive: -4.8%
7,CP(=O)(Nc1ccc2c(c1)OCCO2)Oc1ccccc1 (stereo not drawn),inactive: -12.4%
8,C[C@H]1OP(=O)(Oc2ccccc2)[C@H](O)[C@H](O)[C@H]1N=[N+]=[N-] (stereo partly drawn),inactive: 16.8%
9,CN(C)CCOC(=O)C(O)(c1ccccc1)C1CCCCC1 (stereo not drawn),inactive: 5.52%
10,O=P(Nc1nc2ccccc2s1)(c1ccccc1)c1ccccc1,inactive: 2.33%
11,COc1ccc(NP(C)(=O)Oc2ccccc2OC)cc1 (stereo not drawn),inactive: 4.02%
12,COc1ccc(OP(C)(=O)Nc2cccc(Br)c2)cc1 (stereo not drawn),inactive: -0.792%
13,O=P(Nc1ccccn1)(c1ccc(Br)cc1)c1ccc(Br)cc1,inactive: 12.3%
14,CN(C)C1(CNC(=O)c2ccc(Cl)c(S(N)(=O)=O)c2)CCCCC1,inactive: 3.76%
15,C(Cc1nn[nH]n1)Cc1nn[nH]n1,inactive: -4.34%
16,Nc1ccc([As](=O)(O)c2ccc([N+](=O)[O-])cc2)cc1,inactive: -7.21%
17,O=C(OC1CN2CCC1CC2)c1cccc(Cl)c1 (stereo not drawn),inactive: 8.27%
18,O=[N+]([O-])c1ccc(O)c(/C=N/Nc2ccc([N+](=O)[O-])cc2[N+](=O)[O-])c1,inactive: 7.03%
19,CC(=O)NC(SC(=S)N(C)C)C(Cl)(Cl)Cl (stereo not drawn),inactive: 8.31%
20,O=[N+]([O-])c1ccc(OP2(=O)COCCO2)cc1 (stereo not drawn),inactive: 20.5%
21,O=[N+]([O-])c1ncn(CCn2cnc([N+](=O)[O-])n2)n1,inactive: -6.57%
22,Cc1cc(-c2cccc3ccccc23)c(C)cn1.O=[N+]([O-])c1cc([N+](=O)[O-])c(O)c([N+](=O)[O-])c1,inactive: -8.77%
23,O=[As](O)(c1ccccc1)c1ccc(O)cc1,inactive: -1.86%
